These results are taken from patent publication US11104700B2, “Oligonucleotides” (OXFORD UNIVERSITY INNOVATION LIMITED, priority 2017, dated 2021).

This assay has as its system RNA target: 5′-rG CUA GAG AAG UC G (SEQ ID NO: 40). Nature of the assay: UV thermal melting, two triazole linkages (MeC-MeC steps), RNA target. The note with it: Table 4; for Tm, RNA target: 10 mM phosphate, 200 mM NaCl, pH 7.0, 3.0 μM each strand; for ΔTm/mod, RNA target: relative to unmodified ON35.

Turning to 5′-dCGA^MeCp^MeCTCT^MeCp^MeCAGC, the “Tm, RNA target” value is 70.1 °C.

Regarding 5′-dCGA^MeCp^MeC^LTCT^MeCp^MeC^LAGC, the “Tm, RNA target” value was over 75 °C and the “ΔTm/mod, RNA target” value is “>+2.5 °C/modification”.

With 5′-dCGA^MeCt^MeCTCT^MeCt^MeCAGC, the “Tm, RNA target” value was determined as 59.1 °C and the “ΔTm/mod, RNA target” value is -5.5 °C/modification.

Consider 5′-dCGA^MeCt^MeC^LTCT^MeCt^MeC^LAGC, for which the “Tm, RNA target” value came out at 67.1 °C and the “ΔTm/mod, RNA target” value was -1.5 °C/modification.
